Experimental findings from US10844067B2, “Heterocyclic compounds as RET kinase inhibitors” (Cancer Research Technology Limited, priority 2016, dated 2020) are described below.

Counter-ions that a name gives are not always drawn. Like-named read-outs stand apart in the source and are kept apart here.

The experiment relates to Non-modified BaF3 cells (WT). The experiment can be described thus: BaF3 cell assay, non-modified (WT) cells with IL3. The conditions noted are these: Mus musculus, BaF3, 48 h.
The mark [1] stands for this setting: read-out: BaF3 IC50, Non-modified BaF3 cells (WT) with IL3, 48 hours, CellTiter-Glo.

Broadly, the IC50 is the concentration needed to halve the response being measured. For `CC(C)(C)n1nc(-c2cc3ccccc3[nH]2)c2c(N)ncnc21` [Example 1, 1-(tert-Butyl)-3-(1H-indol-2-yl)-1H-pyrazolo[3,4-d]pyrimidin-4-amine], under setting [1], the IC50 stood at 2.19 µM.

For `CS(=O)(=O)N1CCC(n2nc(-c3cc4ccccc4[nH]3)c3c(N)ncnc32)CC1` [Example 2, 3-(1H-Indol-2-yl)-1-(1-methylsulfonyl-4-piperidyl)pyrazolo[3,4-d]pyrimidin-4-amine], the IC50 under setting [1] is 0.85 µM.

Take `CC(C)(C)n1nc(-c2[nH]c3ccccc3c2Cl)c2c(N)ncnc21` [Example 3, 1-tert-Butyl-3-(3-chloro-1H-indol-2-yl)pyrazolo[3,4-d]pyrimidin-4-amine]: the IC50 under setting [1] stood at 7.2 µM.

For `Nc1ncnc2c1c(-c1cc3ccccc3[nH]1)nn2[C@H]1CC[C@H](NC(=O)C2CC2)CC1` [Example 5, N-(trans-4-(4-Amino-3-(1H-indol-2-yl)-1H-pyrazolo[3,4-d]pyrimidin-1-yl)cyclohexyl)cyclopropanecarboxamide], under setting [1], the IC50 was 0.799 µM.

For `Nc1ncnc2c1c(-c1cc3ccccc3[nH]1)nn2[C@H]1CC[C@H](N2CCOCC2)CC1` [Example 6, 3-(1H-Indol-2-yl)-1-(trans-4-morpholinocyclohexyl)-1H-pyrazolo[3,4-d]pyrimidin-4-amine], the IC50 under setting [1] was 1.58 µM.

Turning to `Nc1ncnc2c1c(-c1[nH]c3ccccc3c1Cl)nn2[C@H]1CC[C@H](N2CCOCC2)CC1` [Example 7, 3-(3-Chloro-1H-indol-2-yl)-1-(trans-4-morpholinocyclohexyl)-1H-pyrazolo[3,4-d]pyrimidin-4-amine], the IC50 under setting [1] stood at 6.04 µM.

In the case of `Nc1ncnc2c1c(-c1[nH]c3ccccc3c1Cl)nn2C1CCC(NC(=O)C2CC2)CC1` (stereo not drawn) [Example 8, N-[4-[trans-4-Amino-3-(3-chloro-1H-indol-2-yl)pyrazolo[3,4-d]pyrimidin-1-yl]cyclohexyl]cyclopropanecarboxamide], the IC50 under setting [1] turned out to be 9.19 µM.

For the compound `CC(C)(C)n1nc(-c2cc3cccnc3[nH]2)c2c(N)ncnc21` [Example 9, 1-tert-Butyl-3-{1H-pyrrolo[2,3-b]pyridin-2-yl}-1H-pyrazolo[3,4-d]pyrimidin-4-amine], the IC50 under setting [1] worked out at 3.8 µM.

As for `CC(C)(C)n1nc(-c2[nH]c3ncccc3c2Cl)c2c(N)ncnc21` [Example 10, 1-tert-Butyl-3-{3-chloro-1H-pyrrolo[2,3-b]pyridin-2-yl}-1H-pyrazolo[3,4-d]pyrimidin-4-amine], under setting [1], the IC50 is above 10 µM.

As to `CC(C)n1nc(-c2cc3ccccc3[nH]2)c2c(N)nccc21` [Example 11, 3-(1H-Indol-2-yl)-1-(propan-2-yl)-1H-pyrazolo[4,3-c]pyridin-4-amine], the concentration for half-maximal inhibition (IC50) under setting [1] turned out to be 6.33 µM.

As to `CC(C)n1nc(-c2[nH]c3ccccc3c2Cl)c2c(N)nccc21` [Example 12, 3-(3-Chloro-1H-indol-2-yl)-1-(propan-2-yl)-1H-pyrazolo[4,3-c]pyridin-4-amine], the IC50 under setting [1] is 4.8 µM.

Turning to `CC(C)c1cc(-c2cc3ccccc3[nH]2)c2c(N)ncnn12` [Example 13, 5-(1H-Indol-2-yl)-7-(propan-2-yl)pyrrolo[2,1-f][1,2,4]triazin-4-amine], under setting [1], the IC50 turned out to be 5.07 µM.

As for `CC(C)c1cc(-c2[nH]c3ccccc3c2Cl)c2c(N)ncnn12` [Example 14, 5-(3-Chloro-1H-indol-2-yl)-7-(propan-2-yl)pyrrolo[2,1-f][1,2,4]triazin-4-amine], the IC50 under setting [1] was above 10 µM.

Take `CC(C)n1nc(-c2cc3ccc(Br)cc3[nH]2)c2c(N)ncnc21` [Example 15, 3-(6-Bromo-1H-indol-2-yl)-1-isopropyl-pyrazolo[3,4-d]pyrimidin-4-amine]: the IC50 under setting [1] was above 10 µM.

As for `CC(C)n1nc(-c2[nH]c3cc(Br)ccc3c2Cl)c2c(N)ncnc21` [Example 16, 3-(6-Bromo-3-chloro-1H-indol-2-yl)-1-isopropyl-pyrazolo[3,4-d]pyrimidin-4-amine], the IC50 under setting [1] was above 10 µM.

With `CC(C)(C)n1nc(-c2cc3ccc(C#N)cc3[nH]2)c2c(N)ncnc21` [Example 17, 2-(4-Amino-1-(tert-butyl)-1H-pyrazolo[3,4-d]pyrimidin-3-yl)-1H-indole-6-carbonitrile], the IC50 (read-out: BaF3 IC50) was above 10 µM.

For the compound `CC(C)(C)n1nc(-c2[nH]c3cc(C#N)ccc3c2Cl)c2c(N)ncnc21` [Example 18, 2-(4-Amino-1-(tert-butyl)-1H-pyrazolo[3,4-d]pyrimidin-3-yl)-3-chloro-1H-indole-6-carbonitrile], the IC50 under setting [1] is above 10 µM.

With `CC(C)(C)n1nc(-c2[nH]c3cc(CO)ccc3c2Cl)c2c(N)ncnc21` [Example 19, (2-(4-Amino-1-(tert-butyl)-1H-pyrazolo[3,4-d]pyrimidin-3-yl)-3-chloro-1H-indol-6-yl)methanol], under setting [1], the 50% inhibitory concentration (IC50) was above 10 µM.

For the compound `CC(C)(C)n1nc(-c2cc3ccc(Cl)cc3[nH]2)c2c(N)ncnc21` [Example 20, 1-(tert-Butyl)-3-(6-chloro-1H-indol-2-yl)-1H-pyrazolo[3,4-d]pyrimidin-4-amine], the IC50 under setting [1] was above 10 µM.

`CC(C)n1cc(-c2cc3cccnc3[nH]2)c2c(N)ncnc21` [Example 21, 7-Isopropyl-5-(1H-pyrrolo[2,3-b]pyridin-2-yl)pyrrolo[2,3-d]pyrimidin-4-amine]: under setting [1], the IC50 worked out at 2.51 µM.

For `CS(=O)(=O)N1CCC(n2nc(-c3cc4cccnc4[nH]3)c3c(N)ncnc32)CC1` [Example 22, 1-(1-Methanesulfonylpiperidin-4-yl)-3-{1H-pyrrolo[2,3-b]pyridin-2-yl}-1H-pyrazolo[3,4-d]pyrimidin-4-amine], the IC50 under setting [1] is above 10 µM.

Consider `CS(=O)(=O)N1CCC(n2nc(-c3[nH]c4ncccc4c3Cl)c3c(N)ncnc32)CC1` [Example 23, 3-{3-Chloro-1H-pyrrolo[2,3-b]pyridin-2-yl}-1-(1-methanesulfonylpiperidin-4-yl)-1H-pyrazolo[3,4-d]pyrimidin-4-amine], for which the half-inhibitory concentration (IC50) under setting [1] was above 10 µM.

With `CC(C)(C)n1nc(-c2[nH]c3cc(Cl)ccc3c2Cl)c2c(N)ncnc21` [Example 24, 1-tert-Butyl-3-(3,6-dichloro-1H-indol-2-yl)-1H-pyrazolo[3,4-d]pyrimidin-4-amine], the IC50 under setting [1] was above 10 µM.

Take `COCc1ccc2c(Cl)c(-c3nn(C(C)(C)C)c4ncnc(N)c34)[nH]c2c1` [Example 26, 1-tert-Butyl-3-[3-chloro-6-(methoxymethyl)-1H-indol-2-yl]-1H-pyrazolo[3,4-d]pyrimidin-4-amine]: the IC50 under setting [1] was above 10 µM.

`CC(C)(C)OC(=O)N[C@H]1CC[C@@H](n2nc(-c3cc4cccnc4[nH]3)c3c(N)ncnc32)CC1` [Example 27, tert-Butyl N-[cis-4-(4-amino-3-{1H-pyrrolo[2,3-b]pyridin-2-yl}-1H-pyrazolo[3,4-d]pyrimidin-1-yl)cyclohexyl]carbamate]: the IC50 under setting [1] is 9.06 µM.

Consider `CC(C)(C)OC(=O)N[C@H]1CC[C@@H](n2nc(-c3[nH]c4ncccc4c3Cl)c3c(N)ncnc32)CC1` [Example 29, tert-Butyl N-[cis-4-(4-amino-3-{3-chloro-1H-pyrrolo[2,3-b]pyridin-2-yl}-1H-pyrazolo[3,4-d]pyrimidin-1-yl)cyclohexyl]carbamate], for which the IC50 under setting [1] is above 10 µM.

On to `Cn1nc(-c2cc3cccnc3[nH]2)c2c(N)ncnc21` [Example 31, 1-Methyl-3-{1H-pyrrolo[2,3-b]pyridin-2-yl}-1H-pyrazolo[3,4-d]pyrimidin-4-amine], for which the IC50 under setting [1] was above 10 µM.

With `CC(C)n1nc(-c2cc3cccnc3[nH]2)c2c(N)nccc21` [Example 32, 1-Isopropyl-3-(1H-pyrrolo[2,3-b]pyridin-2-yl)-1H-pyrazolo[4,3-c]pyridin-4-amine], the IC50 under setting [1] came out at 8.57 µM.

Turning to `CC(C)n1nc(-c2[nH]c3ncccc3c2Cl)c2c(N)nccc21` [Example 33, 3-(3-Chloro-1H-pyrrolo[2,3-b]pyridin-2-yl)-1-isopropyl-1H-pyrazolo[4,3-c]pyridin-4-amine], the IC50 under setting [1] stood at 7.26 µM.

For `CC(C)(C)n1nc(-c2[nH]c3ncccc3c2Br)c2c(N)ncnc21` [Example 34, 3-(3-bromo-1H-pyrrolo[2,3-b]pyridin-2-yl)-1-(tert-butyl)-1H-pyrazolo[3,4-d]pyrimidin-4-amine], under setting [1], the IC50 was determined as 3.59 µM.

Regarding `CC(C)(C)n1nc(-c2[nH]c3cc(CN)ccc3c2Cl)c2c(N)ncnc21` [Example 35, 3-(6-(Aminomethyl)-3-chloro-1H-indol-2-yl)-1-(tert-butyl)-1H-pyrazolo[3,4-d]pyrimidin-4-amine], under setting [1], the IC50 was above 10 µM.

For `Nc1ncnc2c1c(-c1[nH]c3ncccc3c1Cl)nn2[C@H]1CC[C@@H](N)CC1` [Example 38, 1-(cis-4-Aminocyclohexyl)-3-(3-chloro-1H-pyrrolo[2,3-b]pyridin-2-yl)-1H-pyrazolo[3,4-d]pyrimidin-4-amine dihydrochloride], the IC50 under setting [1] turned out to be 1.3 µM.

As to `Nc1ncnc2c1c(-c1cc3ccccc3[nH]1)nn2C1CCCCC1` [Example 39, 1-Cyclohexyl-3-(1H-indol-2-yl)pyrazolo[3,4-d]pyrimidin-4-amine], the IC50 under setting [1] is 3.03 µM.

For `Nc1ncnc2c1c(-c1cc3cccnc3[nH]1)nn2C1CCC(O)C1` (centres unmarked) [Example 40, 3-[4-Amino-3-(1H-pyrrolo[2,3-b]pyridin-2-yl)pyrazolo[3,4-d]pyrimidin-1-yl]cyclopentanol], under setting [1], the IC50 was found to be 3.16 µM.

With `Nc1ncnc2c1c(-c1cc3cccnc3[nH]1)nn2C1CCCCC1` [Example 41, 1-Cyclohexyl-3-(1H-pyrrolo[2,3-b]pyridin-2-yl)pyrazolo[3,4-d]pyrimidin-4-amine], under setting [1], the IC50 was above 10 µM.

`Nc1ncnc2c1c(-c1cc3cccnc3[nH]1)nn2C1CCC1` [Example 42, 1-Cyclobutyl-3-(1H-pyrrolo[2,3-b]pyridin-2-yl)pyrazolo[3,4-d]pyrimidin-4-amine]: the IC50 under setting [1] turned out to be 4.79 µM.

In the case of `CCn1nc(-c2cc3cccnc3[nH]2)c2c(N)ncnc21` [Example 43, 1-Ethyl-3-(1H-pyrrolo[2,3-b]pyridin-2-yl)pyrazolo[3,4-d]pyrimidin-4-amine], the IC50 under setting [1] turned out to be 9.5 µM.

For `CC(C)n1cc(-c2[nH]c3ncccc3c2Cl)c2c(N)ncnc21` [Example 45, 5-(3-Chloro-1H-pyrrolo[2,3-b]pyridin-2-yl)-7-isopropyl-pyrrolo[2,3-d]pyrimidin-4-amine], under setting [1], the IC50 turned out to be 2.24 µM.
